Patent US20140274785A1, “BIOMARKERS” (priority 2013, published 2014)

Assays:
ALS SOD1 G93A mouse = settings: published; untreated control 10-12 days; cited from earlier work
[1] = test system: slow axonal transport of 2H-labeled tubulin; experiment: MT-mediated slow axonal transport of 2H-labeled tubulin in L5 root and sciatic nerve of SOD1G93A mice; format: in vivo, mouse; settings: 13 weeks old mice, 3 weeks treatment
[2] = test system: fast axonal transport of 2H-labeled cargo proteins; experiment: MT-mediated fast axonal transport: CSF secretion kinetics and spinal cord retention of 2H-labeled cargo proteins in symptomatic SOD1G93A mice; format: in vivo, mouse; settings: symptomatic ALS SOD1G93A, vs age-matched wild type; n=10 per time point

Structure (SMILES): Nc1nc2ccc(OC(F)(F)F)cc2s1 [Riluzole]
- Onset to Death (ALS SOD1 G93A mouse): 14 to 20 days
- rate of slow axonal transport of 2H-labeled tubulin along the axon [1]: no significant effect
- transport rates of 2H-Chr-B, 2H-NeuR-1 and 2H-sAPP in CSF [2]: much less of an effect
